These are literature values, as cited in patent US5264431A, “Polycyclic conjugates” (Ciba-Geigy Corp., priority 1991, dated 1993).

This data set deals with yeast-like microorganisms and fungi.

For `CN[C@@H]1C[C@H]2O[C@@](C)([C@@H]1OC)n1c3ccccc3c3c4c(c5c6ccccc6n2c5c31)C(=O)NC4` [staurosporin], the MIC (commonly the smallest concentration in the dilution series that meets the test's criterion for growth inhibition) was 3 to 25 µg/mL.
